pKd: −log10 of the molar value. Values joined by “and” are separate entries in the source; they are usually repeats but may differ in a detail not shown here. Identical values can stand only once.

For the first experiment, the target named is Fluos-msR4M-L1 (human). In words: other fluorescence titration; as a1, but Fluos-msR4M-L1 at 10 nM (rows with an asterisk in Supplementary Table 2); apparent KD.
As to MIF(51-67) (peptide), the negative logarithm of the Kd (pKd) (as a rule, the negative decadic logarithm of the Kd, by convention in mol/L) is under 4.70. On the same count and under the same terms, to MIF(60-74) (peptide) belongs under 4.70.

Another experiment has as its target Fluos-msR4M-L1 (human). In words: other fluorescence titration; Fluos-labelled ectodomain peptide at 5 nM titrated with unlabelled MIF or MIF peptide; 10 mM sodium phosphate, pH 7.4, 1% HFIP; emission at 522 nm; apparent KD, 1/1 binding model.
MIF(18-32) (peptide): the negative-log Kd (pKd) is under 4.70.

For the substance MIF(28-43) (peptide), the negative logarithm of the Kd (pKd) is under 4.70. Regarding MIF(69-90) (peptide), the pKd is under 4.70.

As for MIF(101-115) (peptide), the pKd is under 4.70. Same read-out and setting: to MIF(81-94) (peptide) belongs under 4.70. The same measure, in the same setting: to MIF(38-64) (peptide) belongs under 4.70; to MIF(23-38) (peptide), under 4.70; to MIF(50-60) (peptide), under 5.30. Still for that read-out and setting: to MIF(13-27) (peptide) belongs under 4.70; to MIF(38-60) (peptide), under 4.70; to MIF(91-105) (peptide), under 5.00. As to MIF(82-95) (peptide), the pKd was under 5.00. The same measure, in the same setting: to MIF(2-16) (peptide) belongs under 4.70; to MIF(86-100) (peptide), under 4.70.

On to MIF(76-90) (peptide), for which the pKd is under 4.70.

The target of a further experiment is MIF-specific human CXCR4 mimic-ECL1[97–110]-6-Ahx-12-Ado-ECL2[182–196] (msR4M-L1) (human) (UniProt P61073). In words: other fluorescence titration; self-assembly: Fluos-labeled peptide titrated with the same peptide unlabeled; 10 mM sodium phosphate, pH 7.4, 1% HFIP; emission at 522 nm; apparent KD.
Regarding “MIF-specific human CXCR4 mimic-ECL1[97–110]-6-Ahx-12-Ado-ECL2[182–196] (msR4M-L1) (from UniProt P61073 97-110; P61073 182-196) (designed binder)”, the pKd is 6.71 and 6.99 and 6.90.

The target in the next experiment is TAMRA-msR4M-L1 (N-terminally 5(6)-carboxytetramethylrhodamine-labelled msR4M-L1) (human) (UniProt P61073). In words: MST; TAMRA-msR4M-L1 at 100 nM with MIF or CXCL12 in serial dilution; 20 mM sodium phosphate, pH 7.2, Tween-20; 37 °C; MST-on time 1.5 s; apparent KD.
With “CXC-motif chemokine ligand 12 (CXCL12), recombinant (from UniProt P48061-2 22-89)”, the pKd is under 5.51.

The next experiment concerns the target Fluos-msR4M-L1ox (fluorescein-labelled, disulfide-bridged msR4M-L1) (human) (UniProt P61073). In words: other fluorescence titration; Fluos-labelled CXCR4 ectodomain peptide at 5 nM titrated with unlabelled MIF, MIF(10xAla), CXCL12 or MIF peptide fragments; 10 mM sodium phosphate, pH 7.4, 1% HFIP; emission at 522 nm; apparent KD, 1/1 binding model.
In the case of “CXC-motif chemokine ligand 12 (CXCL12), recombinant (from UniProt P48061-2 22-89)”, the pKd was 7.07.

Another experiment deals with Fluos-msR4M-L2ox (fluorescein-labelled, disulfide-bridged msR4M-L2) (human) (UniProt P61073). The description is as above.
In the case of “CXC-motif chemokine ligand 12 (CXCL12), recombinant (from UniProt P48061-2 22-89)”, the pKd is 7.26.

(Values after publication PMC7689490, “Designed CXCR4 mimic acts as a soluble chemokine receptor that blocks atherogenic inflammation by agonist-specific targeting” (Nature Communications, 2020).)
